Experimental data reported in patent US9403767B2, “Substituted 4-aminocyclohexane derivatives” (dated 2016).

Chains of the proteins cited; added tags and fusions are not shown. Lines headed by an entry give the natural chain unless they say otherwise; changes in a name come on top.
UniProt P35372, whole entry, looked up: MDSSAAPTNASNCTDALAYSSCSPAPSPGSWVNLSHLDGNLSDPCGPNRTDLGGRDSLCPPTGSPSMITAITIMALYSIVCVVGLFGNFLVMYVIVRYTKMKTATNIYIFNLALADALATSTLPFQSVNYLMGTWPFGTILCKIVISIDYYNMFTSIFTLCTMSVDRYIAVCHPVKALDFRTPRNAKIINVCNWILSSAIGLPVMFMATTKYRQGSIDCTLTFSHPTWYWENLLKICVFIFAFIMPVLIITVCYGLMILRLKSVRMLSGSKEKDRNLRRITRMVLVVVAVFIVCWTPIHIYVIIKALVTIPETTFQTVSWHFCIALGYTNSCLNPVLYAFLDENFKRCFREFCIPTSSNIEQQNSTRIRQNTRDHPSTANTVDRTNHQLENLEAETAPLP
UniProt P41145: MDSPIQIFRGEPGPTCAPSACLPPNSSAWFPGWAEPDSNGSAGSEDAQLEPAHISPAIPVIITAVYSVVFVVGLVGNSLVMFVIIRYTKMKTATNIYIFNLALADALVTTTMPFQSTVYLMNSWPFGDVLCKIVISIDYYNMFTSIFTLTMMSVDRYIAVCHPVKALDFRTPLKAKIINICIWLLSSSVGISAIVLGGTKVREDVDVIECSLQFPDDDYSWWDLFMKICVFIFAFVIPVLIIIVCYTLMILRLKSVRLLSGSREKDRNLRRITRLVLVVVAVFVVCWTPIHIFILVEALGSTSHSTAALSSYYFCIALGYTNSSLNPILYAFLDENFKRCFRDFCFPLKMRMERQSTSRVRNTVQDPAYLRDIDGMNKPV
UniProt P41146: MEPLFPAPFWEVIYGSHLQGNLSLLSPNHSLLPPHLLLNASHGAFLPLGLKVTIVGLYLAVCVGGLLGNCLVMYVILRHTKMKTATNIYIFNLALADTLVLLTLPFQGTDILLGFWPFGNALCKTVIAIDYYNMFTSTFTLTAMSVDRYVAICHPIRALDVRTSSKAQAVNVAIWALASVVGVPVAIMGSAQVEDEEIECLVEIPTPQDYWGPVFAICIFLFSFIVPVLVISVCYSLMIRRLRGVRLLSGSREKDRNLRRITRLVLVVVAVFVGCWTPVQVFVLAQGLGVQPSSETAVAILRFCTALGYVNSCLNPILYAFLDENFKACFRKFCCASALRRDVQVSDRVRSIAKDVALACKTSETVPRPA

Experiments:
[1] = target: human μ-opiate receptor (Homo sapiens (Human), UniProt P35372); test: μ-opiate receptor binding assay with [3H]-naloxone (CHO-K1 membrane preparation); conditions: for % Inhibition (μ) [1 μM]: test concentration 1 μM; for Ki (μ)/Ki (ORL1): selectivity, 1/[Ki(ORL1)/Ki(μ)]
[2] = target: human κ-opiate receptor (Homo sapiens (Human), UniProt P41145); test: kappa-opiate receptor binding assay with [3H]-CI-977 (CHO-K1 membrane preparation); conditions: for Ki: read-out: Ki (kappa) Mean, comparison table type E; for Ki (kappa)/Ki (ORL1): selectivity, 1/[Ki(ORL1)/Ki(kappa)]
[3] = tested on: Male Sprague Dawley rats, spinal nerve ligature; test: Chung model: mononeuropathic pain after spinal nerve ligature (mechanical allodynia, von Frey); conditions: 100 μg/kg
[4] = target: ORL 1-receptor (Homo sapiens (Human), UniProt P41146); test: ORL 1 receptor binding assay with 3H-nociceptin/orphanin FQ (membranes of recombinant CHO-ORL 1 cells); conditions: for % Inhibition (ORL1) [1 μM]: test concentration 1 μM

Structure (SMILES) | % Inhibition (μ) [1 μM] [1] | Ki [2] | MPE (%), (Dose in μg/kg, rat, i.v.) [3] | % Inhibition (ORL1) [1 μM] [4] | Ki (μ)/Ki (ORL1) [1] | Ki (kappa)/Ki (ORL1) [2] | Ki ([4]; read-out: Ki (ORL1) Mean, comparison table type E)
CN(C)C1(c2ccccc2)CCC(c2ccccc2)(N(C)C)CC1 (single isomer, unassigned) | 59% | 1160 nM | 25 (100) % | 87% |  |  | 
CNC1(c2ccccc2)CCC(c2ccccc2)(N(C)C)CC1 (stereo not drawn) | 30% |  |  | 14% | 36 | 65 | 18 nM
CNC1(c2ccccc2)CCC(c2ccccc2)(N(C)C)CC1 (single isomer, unassigned) | 49% | 1170 nM |  | 80% |  |  | 
CN(C)C1(c2ccccc2)CCC(c2ccccc2)(N(C)C)CC1 (stereo not drawn) | 34% |  |  | 18% | 100 | 193 | 
COc1ccc(Oc2nc(Oc3ccc(OC)cc3)nc(N(C)C3(c4ccccc4)CCC(c4ccccc4)(N(C)C)CC3)n2)cc1 (single isomer, unassigned) | 97% |  |  | 85% |  |  | 
